Measurements as given in patent US7026334B1, “Thiazolidine compounds and pharmaceutical compositions exhibiting thrombopoietin receptor agonism” (Shionogi & Co., Ltd., priority 1999, dated 2006).

The chains behind the UniProt entries cited, without tags or fusion partners. Residues count along the entry.
UniProt P40238, 26-635 limits assumed: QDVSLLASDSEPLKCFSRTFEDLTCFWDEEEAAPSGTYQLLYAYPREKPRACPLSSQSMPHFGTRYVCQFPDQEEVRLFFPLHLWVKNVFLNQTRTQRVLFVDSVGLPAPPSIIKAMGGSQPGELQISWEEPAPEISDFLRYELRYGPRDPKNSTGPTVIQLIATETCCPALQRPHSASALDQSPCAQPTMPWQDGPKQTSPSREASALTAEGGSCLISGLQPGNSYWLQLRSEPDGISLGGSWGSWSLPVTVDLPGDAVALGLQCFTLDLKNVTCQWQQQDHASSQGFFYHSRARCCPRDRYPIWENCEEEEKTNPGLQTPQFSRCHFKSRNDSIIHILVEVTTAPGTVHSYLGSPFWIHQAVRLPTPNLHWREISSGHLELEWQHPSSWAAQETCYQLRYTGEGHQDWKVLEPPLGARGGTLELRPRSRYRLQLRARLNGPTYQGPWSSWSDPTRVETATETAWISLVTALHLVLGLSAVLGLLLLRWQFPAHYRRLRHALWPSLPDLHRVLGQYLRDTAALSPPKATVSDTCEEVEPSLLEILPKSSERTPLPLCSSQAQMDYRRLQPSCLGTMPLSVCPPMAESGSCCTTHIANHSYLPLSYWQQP

Target: human TPO receptor (hTPOR) (Homo sapiens, UniProt P40238)
Test: Proliferation of TPO dependent BaF/hTPOR cells (thrombopoietic activity, WST-1)
Type: cell-based
Settings: read-out: ED50, 20 hours + 4 hours WST-1, absorbance at 450 nm, ED50 = half concentration of the concentration showing the maximum thrombopoietic activity
Description: The TPO dependent BaF/hTPOR cell line which was established by introducing human TPO receptor (hTPOR) into BaF-BO3 cells according to Collins et al (J. Cell. Physiol., 137:293-298 (1988)) was used to test the thrombopoietic activity of the present compound (B-17). The DNA sequences and encoded peptide sequences for human hTPOR have been described by Vigon et al (Proc. Natl. Acad. Sci. USA, 89:5640-5644 (1992)). TPO dose not have any ability to support proliferation of interlukin-3 dependent parental cell line BaF-BO3. BAF/hTPOR cells were maintained in RPMI medium and WEHI-3B conditioned medium as a source of murine interleukin-3 (IL-3). These cells were washed and resuspended in RPMI medium without a source of murine IL-3 and seeded into each well of 96-well microtiter plates at a density of […] cells per well in the absence or presence of various concentration of hTPO or the present compound. After incubation at 37° C. for 20 hours in the 5% CO2 incubator, 10% WST-1 reagent (Takara Biomedicals, Japan) was added to each wells and the cells were further incubated for 4 hours. Table 24 exemplifies the ED50 for tested compounds of the present invention, wherein the ED50 is the half concentration of the concentration showing the maximum thrombopoietic activity

Compound | EC50 [nM]
O=C1NC(=O)/C(=C/c2ccc(C(=O)Nc3nc(-c4ccc(Br)s4)cs3)cc2)S1 | 30
CCCCCc1ccc(-c2csc(NC(=O)c3ccc(/C=C4\SC(=S)NC4=O)cc3)n2)cc1 | 21
